# Measurements reported in PubChem BioAssay AID602277 (University of Pittsburgh Molecular Library Screening Center, 2012).
# Only a part is listed here, and it is no random draw. Some of these compounds have results that are not shown, active ones among them. The source made the active and inactive calls.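 Rule for the calls: active = inhibition of the reporter signal at or above 50%; inactive = inhibition below 50%.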
# Assay: TLR3 IRF3 reporter activation blockers – cell-based, poly I:C stimulus, luciferase, 10K MLSCN set, primary screen (AID 602277)
# Conditions: HEK293-TLR3 RL24 IRF3 luciferase reporter, at 10 µM, active compounds read high
row,SMILES,inhibition
1,O=C(OC1CN2CCC1CC2)C(CO)(c1ccccc1)c1ccccc1 (stereo unspecified),inactive: 17.9%
